The source of these data is ChEMBL document CHEMBL6074668 (J Med Chem, 2024).

Sequences of proteins named here, by UniProt entry; tags and fusion partners are left off. A change or cut given only in a name is not applied to a line headed by its entry.
UniProt P41143, whole entry: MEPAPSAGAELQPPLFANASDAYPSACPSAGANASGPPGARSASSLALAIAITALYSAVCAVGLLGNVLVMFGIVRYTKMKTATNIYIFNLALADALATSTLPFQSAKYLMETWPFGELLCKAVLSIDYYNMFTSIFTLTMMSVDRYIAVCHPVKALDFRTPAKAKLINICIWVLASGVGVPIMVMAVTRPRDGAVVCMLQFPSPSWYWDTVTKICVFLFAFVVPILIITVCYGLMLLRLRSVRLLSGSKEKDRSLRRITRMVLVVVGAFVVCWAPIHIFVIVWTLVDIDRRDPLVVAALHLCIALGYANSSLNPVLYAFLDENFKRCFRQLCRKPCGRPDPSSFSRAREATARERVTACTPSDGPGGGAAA
UniProt P35372, whole entry: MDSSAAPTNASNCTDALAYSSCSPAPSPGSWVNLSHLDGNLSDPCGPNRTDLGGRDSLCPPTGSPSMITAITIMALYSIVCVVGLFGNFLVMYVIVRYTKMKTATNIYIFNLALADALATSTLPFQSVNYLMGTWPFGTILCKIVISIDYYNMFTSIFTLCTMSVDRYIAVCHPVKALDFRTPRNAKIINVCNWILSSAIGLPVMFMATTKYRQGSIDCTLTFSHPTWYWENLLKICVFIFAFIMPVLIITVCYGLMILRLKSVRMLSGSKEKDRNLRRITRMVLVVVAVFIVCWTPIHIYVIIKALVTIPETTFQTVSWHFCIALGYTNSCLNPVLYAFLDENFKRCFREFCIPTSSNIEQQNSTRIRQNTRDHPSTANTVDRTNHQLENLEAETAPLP
UniProt P41145: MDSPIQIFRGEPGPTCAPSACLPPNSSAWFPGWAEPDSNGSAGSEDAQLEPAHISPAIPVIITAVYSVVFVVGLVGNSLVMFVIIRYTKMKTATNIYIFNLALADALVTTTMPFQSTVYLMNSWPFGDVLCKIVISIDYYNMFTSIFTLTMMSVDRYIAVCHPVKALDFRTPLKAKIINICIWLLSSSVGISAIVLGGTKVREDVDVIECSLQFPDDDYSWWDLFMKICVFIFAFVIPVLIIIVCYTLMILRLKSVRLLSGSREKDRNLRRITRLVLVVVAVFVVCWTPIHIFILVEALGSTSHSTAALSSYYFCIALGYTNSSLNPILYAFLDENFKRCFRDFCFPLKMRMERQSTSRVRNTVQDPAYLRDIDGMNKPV

Assay [1] is filed under the species Homo sapiens. Nature of the assay: Selectivity index, ratio of EC50 for agonist activity at human mu opioid receptor expressed in CHO-K1 cells to EC50 for agonist activity at human kappa opioid receptor expressed in CHO-K1 cells. Format: cell-based.
In assay [2] the target is Delta-type opioid receptor (Homo sapiens) (UniProt P41143). Nature of the assay: Agonist activity at human delta opioid receptor expressed in CHO-K1 cells assessed as inhibition of forskolin-stimulated cAMP accumulation at <1 uM by HitHunter assay based luminescence analysis. In kind it is functional, cell-based.
Assay [3] has as its target T1, Mu-type opioid receptor (Homo sapiens, UniProt P35372). Kind of assay: Agonist activity at human mu opioid receptor expressed in CHO-K1 cells assessed as inhibition of forskolin-stimulated cAMP accumulation at 10 uM by HitHunter assay based luminescence analysis. In kind it is functional, cell-based.
Assay [4] has as its target T1, Mu-type opioid receptor. Kind of assay: Agonist activity at human mu opioid receptor expressed in CHO-K1 cells assessed as inhibition of forskolin-stimulated cAMP accumulation by HitHunter assay based luminescence analysis relative to control. In kind it is functional, cell-based.
The target in assay [5] is T2, Kappa-type opioid receptor (Homo sapiens, UniProt P41145). Kind of assay: Agonist activity at human kappa opioid receptor expressed in CHO-K1 cells assessed as inhibition of forskolin-stimulated cAMP accumulation by HitHunter assay based luminescence analysis relative to control. In kind it is functional, cell-based. The conditions noted are these: filed as agonist.

Assay [6] addresses T2, Kappa-type opioid receptor. Kind of assay: Agonist activity at kappa opioid receptor (unknown origin) assessed as beta arrestin2 recruitment at 3 uM by PRESTO-Tango assay. In kind it is functional. The settings on record: filed as agonist.

The structures appear in SMILES notation. Calls of active or inactive are those of the source. The rule behind the calls is not given here.

Consider `C/C=C1/CN2CC[C@]34C(=C(C(=O)OC)[C@H]1C[C@H]23)Nc1ccc(-c2ccsc2)cc14`, for which, in assay [1], the Ratio EC50 worked out at 110.

With `C/C=C1/CN2CC[C@]34C(=C(C(=O)OC)[C@H]1C[C@H]23)Nc1ccccc14` [AKUAMMICINE], the outcome in assay [2] and in assay [3] was inactive.

Consider `C/C=C1/CN2CC[C@]34c5cc(Br)ccc5NC3C(C(=O)OC)[C@H]1C[C@H]24` (stereo partly specified), for which the result in assay [3] was inactive.

Turning to `C/C=C1/CN2CC[C@]34C(=C(C(=O)OC)[C@H]1C[C@H]23)Nc1ccc(I)cc14`, in assay [1], the Ratio EC50 is 7200. The maximal effect (Emax) in assay [4] was < 10%; in assay [5], 98%. Besides, the result in assay [2] was inactive. Further, the outcome in assay [6] was Active.

As for `C/C=C1/CN2CC[C@]34C(=C(C(=O)OC)[C@H]1C[C@H]23)Nc1ccc(-c2ccoc2)cc14`, in assay [1], the Ratio EC50 was found to be 820.

As for `C/C=C1/CN2CC[C@]34C(=C(C(=O)OC)[C@H]1C[C@H]23)Nc1ccc(-c2ccccc2)cc14`, the Ratio EC50 in assay [1] is 52.
